Values after ≈ are worked out from the molar mass of the structure shown.
Tests used:
Type in all cases: cell-based
[1] = test system: P. aeruginosa strain ATCC 27853
Source text: (§1) Table I, which follows, indicates the Minimal Inhibitory Concentration (MIC) in […] of various peptides against S.aureus strain ATCC 25923(S), P. aeruginosa strain ATCC 27853(P), E. coli ATCC strain 25922(E), and C. 4albicans (CA). […] The peptides are unsubstituted at the N-terminal; substituted with an acetyl group at the N-terminal, as indicated by Ac-; substituted with an octanoyl group at the N-terminal, as indicated by Oct-; substituted with spinogosine, as indicated by Sph-; substituted with a succinyl group, as indicated by Suc-; substituted with a hexanoyl group, as indicated by Hex-; substituted with a heptanoyl group, as indicated by Hep-; substituted with a valeryl group, as indicated by Val-; substituted with a myristryl group, as indicated by Myr-; or substituted with an ibuprofyl group, as indicated by Ibu-; […]
(§2) The stock peptide solution was diluted in serial dilutions (1:2) down the wells of a microtiter plate so that the final concentrations of peptides in the wells were 0.25, 0.50, 1, 2, 4, 8, 16, 32, 64, 128 and 256 μg/ml. […] The plates were incubated for 16-20 hours at 37° C., and the minimal inhibitory concentration (MIC) for each peptide was determined. […]
(§3) The in vitro anti-microbial activities of the methane sulfonate derivatives were determined according to the methods described in Examples 1 and 2. […]

[2] = test system: E. coli ATCC strain 25922; experiment: Minimal Inhibitory Concentration, microtiter broth dilution
Source text: as §1, §2, §3

S. aureus ATCC 29213 = test system: S. aureus ATCC 29213
[3] = test system: A-549 human lung carcinoma cells; settings: 24 h
Protocol: (§4) Human lung carcinoma cells, A-549 (ATCC), and human breast carcinoma cells, MDA-435 (from Sandoz), were grown in Ham's F12K medium (GIBCO-BRL) supplemented with […] fetal bovine serum. Human chronic myelogenous leukemia cells, K-562 (ATCC), were maintained in RPMI 1640 medium (GIBCO-BRL) supplemented with 10% fetal bovine serum. Human melanoma cell line, WM 1617 (from the Wistar Institute), was maintained in 2% Tumor media.
(§5) Cytotoxicity assays were performed on the cell lines described above using CytoLite (Packard Instrument Company) following the manufacture's instruction. Briefly, 2×10^4cells/well were seeded into black, 96-well ViewPlates (Packard Instrument Company) in 100 μl/well growth medium. Ser. dilutions of Magainin peptides were then added into the cells and the plates incubated for 24 hours in a humidified 5% CO2 atmosphere at 37° C. Following incubation, 25 μl/well of CytoLite activator solution was added followed by 125 μl/well of amplifier solution. Luminescence was measured on TopCount Microplate Scintillation and Luminescence counter (Packard Instrument Company) using a 1 second count time in SPC (single photon counting) mode at 25 ° C. All assays were performed in triplicate. The peptides tested in this assay were MSI-78(SEQ ID NO: 154 —NH2), MSI-1858(SEQ ID NO: 154 —NH2 Methane Sulfonate), MSI-344(SEQ ID NO: 154 —OH) and MSI-1857(SEQ ID NO: 154 —OH Methane Sulfonate). The results of these assays are shown in FIGS. 2-9 with the corresponding IC50 values in Table VIII. In all cases the activity of the methane sulfonated peptide was as good or better than the parent peptide as indicated by both the survival curves and the IC50 values.

[4] = test system: K-562 human chronic myelogenous leukemia cells; settings: 24 h
Protocol: as §4, §5

[5] = test system: MDA-435 human breast carcinoma cells; settings: 24 h
Protocol: as §4, §5

[6] = test system: WM 1617 human melanoma cells; settings: 24 h
Protocol: as §4, §5

MIC P. aeruginosa ATCC 27853 [1]: 32 to 64 µg/mL
MIC E. coli ATCC 25922 [2]: 32 µg/mL (≈ 9.36 µM)
MIC S. aureus ATCC 29213 (S. aureus ATCC 29213): 32 µg/mL (≈ 9.36 µM)
IC50 [3]: 4 µM
IC50 [4]: 7 µM
IC50 [5]: 4 µM
IC50 [6]: 4 µM
SMILES: CC[C@H](C)[C@H](NC(=O)CNCS(=O)(=O)O)C(=O)NCC(=O)N[C@@H](CCCCNCS(=O)(=O)O)C(=O)N[C@@H](Cc1ccccc1)C(=O)N[C@@H](CC(C)C)C(=O)N[C@@H](CCCCNCS(=O)(=O)O)C(=O)N[C@@H](CCCCNCS(=O)(=O)O)C(=O)N[C@@H](C)C(=O)N[C@@H](CCCCNCS(=O)(=O)O)C(=O)N[C@@H](CCCCNCS(=O)(=O)O)C(=O)N[C@@H](Cc1ccccc1)C(=O)NCC(=O)N[C@@H](CCCCNCS(=O)(=O)O)C(=O)N[C@@H](C)C(=O)N[C@@H](Cc1ccccc1)C(=O)N[C@H](C(=O)N[C@@H](CCCCNCS(=O)(=O)O)C(=O)N[C@H](C(=O)N[C@@H](CC(C)C)C(=O)N[C@@H](CCCCNCS(=O)(=O)O)C(=O)N[C@@H](CCCCNCS(=O)(=O)O)C(N)=O)[C@@H](C)CC)C(C)C [MSI-1858]
